## Curated experimental data: logP (octanol/water) values

Values as listed in the OPERA 2.9 repository of K. Mansouri.

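The numbers are reported measurements, compiled and curated for the OPERA QSAR suite. One number stands for a compound and property, with no spread given. Conditions of the individual experiments are not part of the data. A value may pool stereoisomers or salt forms, and the file does not say which form was measured. Unmarked limits or estimates from the upstream databases cannot be ruled out.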

The octanol-water partition coefficient is given as log10; larger values mean a more lipophilic compound.
Cells with "n/a" have no entry in this list.

| SMILES | name | log Kow |
|---|---|---|
| Cc1cc(C)c(N)c(S(=O)(=O)O)c1 | Benzenesulfonic acid, 2-amino-3,5-dimethyl- | 0.814 |
| C=C(OCC)C1C(C)(C)CC(=O)CC1(C)C | 4-(1-Ethoxyethenyl)-3,3,5,5-tetramethylcyclohexanone | 4.3 |
| CCCC=C(C=O)CC | 2-Ethyl-2-hexenal | 2.61 |
| Cc1ccc(O)c([C@H](CCN(C(C)C)C(C)C)c2ccccc2)c1 | (R)-(+)-Tolterodine | 5.6 |
| CC(C)=CCC/C(C)=C/COC=O | Geranyl formate | 4.1 |
| CC(O)=NC(=O)C(N)CCCNC(=N)N (stereo not drawn) | N-Arginylethanimidic acid | -2.84 |
| O=C(O)c1cc(C(=O)O)cc([N+](=O)[O-])c1 | 5-Nitroisophthalic acid | 1.1 |
| C=CC(=O)NC(C)(C)CC(C)(C)C | N-tert-Octylacrylamide | 2.25 |
| CC(C)CCCCCCCCCCCC/C=C/C(=O)O | Isooctadecenoic acid | 8.23 |
| CCOC(=O)c1ccc(C#Cc2ccc3c(c2)C(C)(C)CCS3)nc1 | Tazarotene | 5.6 |
| CC1(C)[C@@H]2CC[C@@](C)(O)[C@H]1C2 | cis-2-Pinanol | 2.98 |
| CC12C=CC(=O)C=C1CCC1C2C(O)CC2(C)C1CC(O)C2(O)C(=O)CO (stereo not drawn) | 11,16,17,21-Tetrahydroxypregna-1,4-diene-3,20-dione | 0.8 |
| O=S(=O)(O)C(S(=O)(=O)O)S(=O)(=O)O | Methanetrisulphonic acid | -2.56 |
| COc1cc(-c2cc(OC)cc(C(C)(C)C)c2O)c(O)c(C(C)(C)C)c1 | 3,3'-Di-tert-butyl-5,5'-dimethoxy[1,1'-biphenyl]-2,2'-diol | 6.09 |
| Clc1ccccc1NNc1ccccc1Cl | 1,2-Bis(2-chlorophenyl)hydrazine | 5.1 |
| Cc1ccc(C=O)cc1C | 3,4-Dimethylbenzaldehyde | 2.45 |
| Cc1ccc(C(=O)OCCCl)cc1N=Nc1c(O)c(C(=O)Nc2cc(C)c(NC(=O)c3cc4ccccc4c(N=Nc4cc(C(=O)OCCCl)ccc4C)c3O)cc2C)cc2ccccc12 | n/a | -0.15 |
| Cc1ccc(OCC(=O)N(Cc2cccs2)c2cc[nH]n2)cc1 | n/a | 2.4 |
| O=P(O)(O)C(Cl)(Cl)P(=O)(O)O | Clodronic acid | -2.4 |
| COc1cc(/N=N/c2cc(S(=O)(=O)[O-])c3cccc(S(=O)(=O)[O-])c3c2)c(C)cc1NC(=O)Nc1cc(C)c(/N=N/c2cc(S(=O)(=O)[O-])c3cccc(S(=O)(=O)[O-])c3c2)cc1OC.[Na+].[Na+].[Na+].[Na+] | C.I. Direct Yellow 34 | -4.5 |
| O=C(Nc1ccccc1)c1cc2ccccc2cc1O | 3-Hydroxy-2-naphthanilide | 4.62 |
| Nc1ccc(/N=N/c2ccc(S(=O)(=O)Nc3ccc(/N=N/c4c(S(=O)(=O)[O-])cc5cc(S(=O)(=O)[O-])c(/N=N/c6ccccc6)c(O)c5c4N)cc3)cc2)c(N)c1.[Na+].[Na+] | C.I. Acid Black 234 | -1.86 |
| CC(C)OC(=O)CCC/C=C\C[C@@H]1[C@@H](/C=C/[C@@H](O)COc2cccc(C(F)(F)F)c2)[C@H](O)C[C@@H]1O | Travoprost | 4.6 |
| O=S(=O)([O-])CCCSc1nc2ccccc2s1.[Na+] | n/a | -1.7 |
| O=C([O-])c1ccccc1-c1c2cc(Br)c(=O)c(Br)c-2oc2c(Br)c([O-])c(Br)cc12.O=C([O-])c1ccccc1-c1c2cc(Br)c(=O)c(Br)c-2oc2c(Br)c([O-])c(Br)cc12.O=C([O-])c1ccccc1-c1c2cc(Br)c(=O)c(Br)c-2oc2c(Br)c([O-])c(Br)cc12.[Al+3].[Al+3] | Pigment Red 90:1 | 4.777 |
| C=CC(=O)OCCn1c(=O)n(CCOC(=O)C=C)c(=O)n(CCOC(=O)C=C)c1=O | n/a | 1.92 |
| CC1=NS(=O)(=O)c2cccnc2N1C | n/a | -0.05 |
| CC1CN(c2ccccc2)NC1=O (stereo not drawn) | 4-Methyl-1-phenylpyrazolidin-3-one | 0.624 |
| O=C(O)c1ccc(C(=O)O)o1 | 2,5-Furandicarboxylic acid | 0.299 |
| NS(=O)(=O)c1ccc(N2CCC(c3ccc(Cl)cc3)=N2)cc1 | n/a | 2.56 |
| CCCCCCCCCCCCCCCC[N+](C)(C)CC(=O)OCC.[Cl-] | n/a | 1.2 |
| CNC(=O)C(C)(C(C)C)C(C)C | Trimethyl isopropyl butanamide | 2.5 |
| COc1ccccc1NC(=O)CC(C)=O | N-(2-Methoxyphenyl)-3-oxobutanamide | 0.91 |
| Nc1cc(S(=O)(=O)O)ccc1O | 2-Amino-1-phenol-4-sulfonic acid | 0.21 |
| c1cc(OCC2CO2)c2ccc(OCC3CO3)cc2c1 (stereo not drawn) | Oxirane, 2,2'-[1,6-naphthalenediylbis(oxymethylene)]bis- | 2.3 |
| COC(C)(C)CCOC(C)=O | 1-Butanol, 3-methoxy-3-methyl-, acetate | 1.6 |
| CC(N)c1ccccc1 (stereo not drawn) | (1-Aminoethyl)benzene | 0.225 |
| CCCCCCCCCCCC[S+](CC)C(C)CC#N.F[B-](F)(F)F (stereo not drawn) | n/a | 0.75 |
| F/C(=C\Cl)C(F)F | n/a | 1.9 |
| CCCCC(CC)COP(=O)(OCC(CC)CCCC)OCC(CC)CCCC (stereo not drawn) | Tris(2-ethylhexyl) phosphate | 4.15 |
| Cc1ccc(N(CC(C)O)CC(C)O)cc1 (stereo not drawn) | 2-Propanol, 1,1'-[(4-methylphenyl)imino]bis- | 2.1 |
| Cc1ncc(C[n+]2csc(CCOP(=O)([O-])OP(=O)(O)O)c2C)c(N)n1 | Thiamine pyrophosphate | -4.9 |
| Cc1cccc(CC(=O)O)c1 | m-Tolylacetic acid | 1.95 |
| Nc1ccc(OCCO)c(N)c1.O=S(=O)(O)O | n/a | -0.54 |
| CSc1nc(NC2CC2)nc(NC(C)(C)C)n1 | Cybutryne | 2.8 |
| C=Cc1ccc(O)cc1 | 4-Ethenyl-phenol | 2.3 |

The 2 lowest values of log Kow among the entries above:

{"smiles": "Cc1ncc(C[n+]2csc(CCOP(=O)([O-])OP(=O)(O)O)c2C)c(N)n1", "name": "Thiamine pyrophosphate", "log Kow": "-4.9"}
{"smiles": "COc1cc(/N=N/c2cc(S(=O)(=O)[O-])c3cccc(S(=O)(=O)[O-])c3c2)c(C)cc1NC(=O)Nc1cc(C)c(/N=N/c2cc(S(=O)(=O)[O-])c3cccc(S(=O)(=O)[O-])c3c2)cc1OC.[Na+].[Na+].[Na+].[Na+]", "name": "C.I. Direct Yellow 34", "log Kow": "-4.5"}